Assay results as given in PubChem BioAssay AID2796 (The Scripps Research Institute Molecular Screening Center, 2010).
This is a selection; strong and weak results do not stand in their true shares. Active and inactive are the calls of the source. Cut-off read from the data, not from the text of the source: active = activation above about 47%; inactive = the rest.

Protein sequences, listed by entry. Tags and fused reporters are not part of them. Lines headed by an entry give the natural chain unless they say otherwise; changes in a name come on top.
UniProt P35869: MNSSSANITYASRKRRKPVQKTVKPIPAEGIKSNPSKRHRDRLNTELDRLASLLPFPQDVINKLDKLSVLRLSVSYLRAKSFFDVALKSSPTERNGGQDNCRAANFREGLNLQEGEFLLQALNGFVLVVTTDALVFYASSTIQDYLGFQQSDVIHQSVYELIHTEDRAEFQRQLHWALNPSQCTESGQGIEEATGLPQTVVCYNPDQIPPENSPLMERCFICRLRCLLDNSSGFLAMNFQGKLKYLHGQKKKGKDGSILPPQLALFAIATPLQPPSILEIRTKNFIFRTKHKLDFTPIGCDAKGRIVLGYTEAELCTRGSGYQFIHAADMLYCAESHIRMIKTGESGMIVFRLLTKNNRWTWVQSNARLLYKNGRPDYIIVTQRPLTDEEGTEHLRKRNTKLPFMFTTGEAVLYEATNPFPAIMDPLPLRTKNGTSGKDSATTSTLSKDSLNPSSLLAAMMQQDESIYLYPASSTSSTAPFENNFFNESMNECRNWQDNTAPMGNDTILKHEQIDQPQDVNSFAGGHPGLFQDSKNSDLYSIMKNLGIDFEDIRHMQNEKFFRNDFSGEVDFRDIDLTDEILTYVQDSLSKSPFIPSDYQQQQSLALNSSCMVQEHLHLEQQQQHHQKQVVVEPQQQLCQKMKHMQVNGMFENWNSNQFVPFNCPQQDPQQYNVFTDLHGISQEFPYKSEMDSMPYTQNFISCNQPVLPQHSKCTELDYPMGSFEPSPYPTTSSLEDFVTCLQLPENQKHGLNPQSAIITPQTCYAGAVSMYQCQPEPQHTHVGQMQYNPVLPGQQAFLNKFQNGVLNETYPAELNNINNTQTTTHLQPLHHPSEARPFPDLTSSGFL

Target: Aryl hydrocarbon receptor (Homo sapiens) (UniProt P35869)
Assay: AHR activators, primary screen, cell-based, luminescence, luciferase reporter, human (AID 2796);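 note: 0% = vehicle wells and 100% = reference agonist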
Conditions: AHR-responsive luciferase reporter cells, at 5 µM, stronger effect = higher value

| Structure (SMILES) | activation |
| --- | --- |
| Cc1ccc(NP(=O)(Oc2ccccc2)Oc2ccccc2)nc1 | inactive: 11.4% |
| CCc1nc2c(n1)c1c(non1O)c1c2no[n+]1[O-] | inactive: 1.62% |
| O=[N+]([O-])c1cc([N+](=O)[O-])c(CCNc2ccccc2)c([N+](=O)[O-])c1 | active: 70% |
| O=[N+]([O-])c1cccc2n[nH]nc12 | inactive: 1.16% |
| CC(=O)N1C2C3N(C(C)=O)C1C1N(C(C)=O)C(C(N1C(C)=O)N3C(C)=O)N2C(C)=O | inactive: -0.45% |
| COc1ccc(C2=NCC(CBr)S2)cc1 (stereo unspecified) | inactive: 4.26% |
| O=[N+]([O-])c1cccc(NC2=NCC(CBr)S2)c1 (stereo unspecified) | inactive: 1.75% |
| O=[N+]([O-])c1ncn(CCn2ncnc2[N+](=O)[O-])n1 | inactive: -1.5% |
| CC(C)(C)C(=O)NC(Sc1ccncn1)C(Cl)(Cl)Cl (stereo unspecified) | inactive: -0.33% |
| O=C(Nc1cc([As](=O)(O)O)ccc1O)c1ccccc1 | inactive: 0.63% |
| O=C(OC1CN2CCC1CC2)c1cccc(Cl)c1 (stereo unspecified) | inactive: -0.38% |
| Nc1ccc([As](=O)(O)c2ccc([N+](=O)[O-])cc2)cc1 | inactive: 2.03% |
| C(Cc1nn[nH]n1)Cc1nn[nH]n1 | inactive: -2.69% |
| O=[As](O)(c1ccccc1)c1ccc(O)cc1 | inactive: -0.14% |
| O=[N+]([O-])c1ccc(O)c(/C=N/Nc2ccc([N+](=O)[O-])cc2[N+](=O)[O-])c1 | inactive: 21.9% |
| O=[N+]([O-])c1ncn(CCn2cnc([N+](=O)[O-])n2)n1 | inactive: -0.82% |
| CC(=O)NC(SC(=S)N(C)C)C(Cl)(Cl)Cl (stereo unspecified) | inactive: 0.34% |
| O=P(Nc1nc2ccccc2s1)(c1ccccc1)c1ccccc1 | inactive: 6.61% |
| C[C@H]1OP(=O)(Oc2ccccc2)[C@H](O)[C@H](O)[C@H]1N=[N+]=[N-] (stereo partly specified) | inactive: 2.04% |
| O=P(Nc1ccccn1)(c1ccc(Br)cc1)c1ccc(Br)cc1 | inactive: 5% |
| CN(C)C1(CNC(=O)c2ccc(Cl)c(S(N)(=O)=O)c2)CCCCC1 | inactive: 1.15% |
| c1nnnn1CCn1cnnn1 | inactive: 0.46% |
| CC(C)C(=O)NC(Sc1ccccc1)C(Cl)(Cl)Cl (stereo unspecified) | inactive: -4.02% |

| Structure (SMILES) | activation |
| --- | --- |
| O=P(Nc1nccs1)(c1ccccc1)c1ccccc1 | inactive: 0.21% |
| CC(=O)Nc1ccc([As](=O)(O)O)c(O)c1 | inactive: 1.18% |
| CC(=O)Nc1ccc(Oc2c([N+](=O)[O-])cc([N+](=O)[O-])cc2[N+](=O)[O-])cc1 | inactive: 0.89% |
| Cc1ccccc1CN(C)C(=O)COC(=O)C(O)(c1ccccc1)c1ccccc1 | inactive: -0.68% |
| C[C@@H]1C=CCP(=O)(Oc2ccccc2)O1 (stereo partly specified) | inactive: 1.23% |
| C[C@H]1OP(=O)(Oc2ccccc2)C[C@@H]2O[C@@H]21 (stereo partly specified) | inactive: 3.83% |
| CC(=O)c1ccc(N2CC2c2ccncc2)cc1 (stereo unspecified) | inactive: 0.12% |
| CC(C)(C)C(=O)NC(Sc1ccccc1)C(Cl)(Cl)Cl (stereo unspecified) | inactive: 16.9% |
| O=P1(Nc2nc3ccc(Cl)cc3s2)COc2ccccc2O1 (stereo unspecified) | inactive: 20.3% |
| CCOc1ccc(C2=NCC(CBr)S2)cc1 (stereo unspecified) | inactive: 2.29% |
| Cc1ccccc1OP(=O)(Nc1ccccn1)Oc1ccccc1C | inactive: 0.15% |
| CC(NC(=O)COC(=O)C(O)(c1ccccc1)c1ccccc1)c1ccccc1 (stereo unspecified) | inactive: -0.66% |
| CN(C)C(=O)Oc1noc2ccccc12 | inactive: -0.26% |
| O=C(OC1CN2CCC1CC2)c1ccccc1 (stereo unspecified) | inactive: 1.47% |
| CCC(=O)N1C2C3N(C(=O)CC)C1C1N(C(=O)CC)C(C(N1C(=O)CC)N3C(=O)CC)N2C(=O)CC | inactive: -0.46% |
| COC(=O)c1cc2c(s1)N=C(c1ccccc1)N(C)P2(=O)N1CCOCC1 (stereo unspecified) | inactive: -0.05% |
| Cc1ccc(OP(=O)(Nc2ccccn2)Oc2ccc(C)cc2)cc1 | inactive: 9.65% |
| CC(=O)NC(SC(=S)N(CC(C)C)CC(C)C)C(Cl)(Cl)Cl (stereo unspecified) | inactive: 2.03% |
| c1ccc(-c2nn[nH]n2)c(-c2nn[nH]n2)c1 | inactive: -0.72% |
| CCOC(=O)NC(Sc1ccccc1)C(Cl)(Cl)Cl (stereo unspecified) | inactive: 4.7% |
| Cc1ccc(NP(=O)(Oc2cccc(C)c2)Oc2cccc(C)c2)nc1 | inactive: 2.75% |
| CCNC(=S)/N=C(\N)N[N+](=O)[O-] | inactive: -0.77% |
| O=C(NC1CCS(=O)(=O)C1)NP(=S)(Oc1ccccc1)Oc1ccccc1 (stereo unspecified) | inactive: 1.89% |
